From US5290776A (dated 1994) come the findings set out here.

Sequences of proteins named here, by UniProt entry; tags and fusion partners are left off.
UniProt P47745, whole entry: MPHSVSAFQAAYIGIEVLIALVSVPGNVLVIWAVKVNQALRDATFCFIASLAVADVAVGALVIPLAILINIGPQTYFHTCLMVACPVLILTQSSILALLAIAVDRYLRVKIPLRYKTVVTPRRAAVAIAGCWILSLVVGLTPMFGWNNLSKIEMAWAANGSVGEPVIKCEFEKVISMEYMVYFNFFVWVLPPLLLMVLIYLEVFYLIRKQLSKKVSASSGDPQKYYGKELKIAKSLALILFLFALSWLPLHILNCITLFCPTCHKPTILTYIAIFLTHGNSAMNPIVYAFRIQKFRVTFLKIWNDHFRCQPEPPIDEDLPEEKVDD

The target in the assay is adenosine receptor known as A1 (Cavia porcellus, UniProt P47745). As to the kind of experiment: Guinea-pig Atrial Bradycardic Test. Type of assay: cell-based.

Consider `Cn1c(=O)c2[nH]cnc2n(C)c1=O` [1,3-dimethylxanthine], for which the Kb was approximately 10 µM.
